According to patent publication US20180044433A1:

Target: type 1 collagen
Test: ELISA, coll1 plated in scalar doses, JMJD6v2 rec 10 nM, anti-FLAG (DDK) detection

## recombinant human JMJD6 variant 2 with C-terminal FLAG (DDK) (from UniProt Q6NYC1 1-403) (enzyme)
  lowest plated dose at which binding is detected: 0.016 pmoles/well
